Assay: Permeation of Fe3+ through isolated rat intestine (Ussing-type cell)
Format: in vitro ADME, male Wistar rats
Conditions: cumulative percentage of Fe3+ permeated at the end of the experiment (4 h); iron 1.34 mg/mL
Protocol: For permeation studies, the intestinal mucosa was isolated from male Wistar rats weighing 250-300 g. After sacrificing the rat, the first 20 cm of the jejunum was immediately removed. The isolated intestine was cut into 1.5 cm strips, the lumen content was gently removed and mounted in a Ussing-type cell (0.78 cm^2 exposed surface) without removing the underlying muscle layer. 1 ml of phosphate buffer pH 6.8, 0.13 M, made isotonic by adding sodium chloride (PBS 6.8) was added to the apical side and 3 ml of a pH 7.4, 0.13 M, isotonic buffer solution (PB 7.4) was added to the basolateral side (acceptor medium). To ensure oxygenation and agitation, a mixture of 95% O2 and 5% CO2 was bubbled in each compartment. Ussing chambers were placed in a water bath at 37° C.
After 20 minutes of equilibration, the medium in each donor compartment was replaced with 1 ml of the suspension of the composition to be tested which had been previously treated to simulate its transit in the stomach. 0.2 g of pepsin were solubilised in 5 ml of an aqueous solution of HCI 0.1 M so as to simulate gastric digestion. […]
1 ml of sample was collected from the receiving compartment at 30-minute intervals for a total of 240 minutes and replaced with the same volume of fresh medium. The amount of Fe^3+ permeated was determined according to an analytical method. […]

Iron (III) pyrophosphate [Iron pyrophosphate]
% permeate: 0.21 ± 0.04%

From patent US20230019690A1, “FORMULATIONS COMPRISING A MINERAL AND/OR A VITAMIN AND A POLYSACCHARIDE, COMPOSITIONS THEREOF AND USE THEREOF IN SUPPLEMENTING SAID MINERAL AND/OR VITAMIN” (ALESCO S.R.L., priority 2019, published 2023)
